Results from patent US20070190523A1 (priority 2002, published 2007).

Key:
[1] = biological target: recombinant HIV-1 protease (Human immunodeficiency virus type 1 group M subtype B, UniProt P04585); assay: biochemical
WT = WT (Human immunodeficiency virus type 1 group M subtype B, UniProt P04585); assay: cell-based; parameters: species or system HIV

SMILES	Ki [1] [nM]	other results
CCOP(=O)(CCNC(=O)Oc1ccc(CC2C(O)C(O)C(Cc3ccc(OC)cc3)N(Cc3cccc(N)c3)C(=O)N2Cc2cccc(N)c2)cc1)OCC (centres unmarked) [OCH3 / Ph-mNH2 / OCONH(CH2)2PO3Et2]	–	IC50 [1]: 1.3 nM
COc1ccc(S(=O)(=O)N(CC(C)C)CC(O)C(Cc2ccc(OCCOCP(=O)(O)O)cc2)NC(=O)OC2COC3OCCC23)cc1 (centres unmarked) [drawing 612 R1=OH R2=OH]	0.01 to 0.1	–
CCOP(=O)(COc1ccc2c(c1)CCN(CC(NC(=O)OC1COC3OCCC13)C(O)CN(CC(C)C)S(=O)(=O)c1ccc(OC)cc1)C2)OCC (centres unmarked)	0.1 to 1	–
COc1ccc(S(=O)(=O)N(CC(C)C)CC(O)C(CNc2ccc(CP(=O)(O)O)cc2)NC(=O)OC2COC3OCCC23)cc1 (centres unmarked)	0.01 to 0.1	–
CCOP(=O)(COc1ccc(CC2C(O)C(O)C(Cc3ccc(OC)cc3)N(Cc3cccnc3)C(=O)N2Cc2cccnc2)cc1)OCC (centres unmarked) [OCH3, m-pyridine, OCH2PO3Et2]	–	EC50 (WT): 115 nM
